The values below come from PubChem BioAssay (Tox21).

Sequences of proteins named here, by UniProt entry; tags and fusion partners are left off.
UniProt P07550, whole entry: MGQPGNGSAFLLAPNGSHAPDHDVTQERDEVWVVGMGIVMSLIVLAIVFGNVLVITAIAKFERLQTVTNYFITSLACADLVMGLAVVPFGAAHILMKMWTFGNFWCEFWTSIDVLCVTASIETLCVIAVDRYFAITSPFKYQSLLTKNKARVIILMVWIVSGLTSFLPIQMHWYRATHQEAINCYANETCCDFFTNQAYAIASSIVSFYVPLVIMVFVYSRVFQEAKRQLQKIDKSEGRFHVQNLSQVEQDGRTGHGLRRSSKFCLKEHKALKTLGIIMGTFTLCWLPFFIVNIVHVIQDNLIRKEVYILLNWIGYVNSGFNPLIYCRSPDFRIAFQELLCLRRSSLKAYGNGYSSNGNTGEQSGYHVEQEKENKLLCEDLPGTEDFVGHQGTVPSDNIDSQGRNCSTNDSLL

This is a selection; strong and weak results do not stand in their true shares. Results filed as inconclusive are left out. Calls of active or inactive are those of the source. Calls follow the shape of the full dose curve.
% is scaled to controls: 0 for no effect and ±100 for the full control effect.

In this assay the target is Beta-2 adrenergic receptor (Homo sapiens) (UniProt P07550). As to the kind of experiment: Adrenergic beta2 receptor (ADRB2) small molecule agonists, cell-based qHTS assay (AID 1963593). The note with it: CHO-ADRB2 cells, cAMP HTRF, 30 min; at 92.4 µM (top of the series) unless noted. From the text: National Center for Advancing Translational Sciences [NCATS]
Division of Preclinical Innovation [DPI]
U.S. Environmental Protection Agency [EPA]
National Institutes of Environmental Health Sciences [NIEHS]
National Toxicology Program [NTP]
U.S. Food and Drug Administration [FDA]
Beta adrenergic receptors (Beta-ARs) belong to the G-protein coupled receptor (GPCR) superfamily, includes three subtypes - beta1, beta2, and beta3. Beta1-AR is the predominant receptor subtype expressed in the heart, and beta2-AR is expressed in the kidney, lung, blood vessel and in the heart, and beta3 is found in the adipocytes. Beta1 and 2 ARs couple to Gs protein and elevate cyclic adenosine mono phosphate (cAMP), which activates protein kinase A and leads to the downstream signaling responsible for the physiological actions. Beta-AR agonists or antagonists are the most prescribed therapeutic agents for heart failure and asthma, and these were one of the first target receptors for the rational drug design. Tox21 10K compound library was screened using the cAMP-Gs dynamic assay (Cisbio Bioassays, Shelton, CT) to identify agonists/antagonists of the Gs-coupled human adrenergic, beta2 receptor (ADRB2) in the CHO-ADRB2 cell line (Codex BioSolutions, Inc. Gaithersburg, MD), which stably over-expresses ADRB2. The principle of cAMP-Gs dynamic assay is based on HTRF technology, which facilitates the fluorescence resonance energy transfer (FRET) between donor Europium cryptate and acceptor d2-labeled cAMP. The cAMP generated within cells competes with the red acceptor, d2-labled cAMP, for binding to the monoclonal anti-cAMP-cryptate (Europium donor). An increase in intracellular cAMP leads to the disruption of FRET signal, and the signal is inversely proportional to the cAMP concentration. Isoproterenol HCl (Sigma-Aldrich, St. Louis, MO) was used as a positive control in the screening.
Tox21 Assay Protocol Summary:
CHO-ADRB2 cells were dispensed at 1,000/well in 4uL assay medium into white/solid 1536-well plates (Greiner Bio-One North America Inc., Monroe, NC) using a Multidrop Combi dispenser (ThermoFisher Scientific, Waltham, MA). The assay plates were incubated at 37C and 5% CO2 for an overnight (18-20hr). Then positive control and test compounds dissolved in DMSO were transferred to the assay plates at 23nL using a Pintool station (Wako, San Diego, CA). Following the compound and positive control transfer, 1uL stimulation mix containing 100uM IBMX and 25uM Ro-20-1724 was added to each well of the assay plates using BioRAPTR Flying Reagent Dispenser (FRD, Beckman Coulter, Brea, CA). The assay plates were incubated at room temperature for 0.5hr. Then 2.5ul each d2-labled cAMP and anti-cAMP-cryptate solutions were added separately to each well of the assay plates using an FRD and the assay plates were incubated at room temperature for 1hr.
As to `[NH4+].[O-][Cl+3]([O-])([O-])[O-]`, the activation was inactive: 8.46%.
`O=[N+]([O-])[O-].[NH4+]`: the activation was inactive: 8.72%.
As for `N#CBr`, the activation was inactive: 2.15%.
With `CCOP(=O)(CC)Oc1ccc([N+](=O)[O-])cc1` (stereo not given), the activation was inactive: 14.3% [at 42.5 µM].
For `OCCSCCO`, the activation was inactive: 0.391% [at 42.5 µM].
In the case of `Cc1c([N+](=O)[O-])cccc1[N+](=O)[O-]`, the activation is inactive: 22.2%.
As to `COP(C)(=O)OC`, the activation was inactive: 3.21%.
As for `Nc1cc([N+](=O)[O-])cc([N+](=O)[O-])c1O`, the figure is inactive: -8.75%.
For the compound `N=C(N)N[N+](=O)[O-]`, the activation was inactive: -13.1%.
Take `CN(C)CCCl`: the activation was inactive: 0.23%.
